Results from patent publication US20060281763A1, “Carboxamide inhibitors of TGFbeta” (priority 2005, published 2006).

Amino acid sequences for entries named in this document (tags omitted). Residues count along the entry.
UniProt P36897, 34-503 limits assumed: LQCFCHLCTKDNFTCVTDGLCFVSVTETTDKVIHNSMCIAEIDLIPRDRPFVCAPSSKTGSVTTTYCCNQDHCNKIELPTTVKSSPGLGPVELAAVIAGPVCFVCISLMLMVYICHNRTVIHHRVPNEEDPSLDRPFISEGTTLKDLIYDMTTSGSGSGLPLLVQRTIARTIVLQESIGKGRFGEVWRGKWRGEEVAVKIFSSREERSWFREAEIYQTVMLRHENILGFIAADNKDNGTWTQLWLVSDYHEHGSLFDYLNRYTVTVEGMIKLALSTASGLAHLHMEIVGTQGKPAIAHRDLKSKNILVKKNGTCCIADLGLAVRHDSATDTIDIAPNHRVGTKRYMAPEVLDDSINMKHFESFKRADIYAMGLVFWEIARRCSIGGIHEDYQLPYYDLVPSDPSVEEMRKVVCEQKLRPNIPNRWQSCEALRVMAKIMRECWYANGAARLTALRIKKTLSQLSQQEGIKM

Target: TGFβ R1 (Homo sapiens, UniProt P36897)
Assay: TGFβ R1 autophosphorylation protocol (33P-ATP, phosphocellulose filter plate)
Conditions: read-out: IC50 for Kinase Inhibition, 10 uM ATP, 170 nM TGFβ R1, 20 minutes at room temperature
Description: The compounds of the invention were tested for their ability to inhibit TGFβ by a TGFβ R^1 autophosphorylation protocol. This was conducted as follows: Compound dilutions and reagents were prepared fresh daily. Compounds were diluted from DMSO stock solutions to 2 times the desired assay concentration, keeping final DMSO concentration in the assay less than or equal to 1%. TGFβ R1 was diluted to 4 times the desired assay concentration in buffer+DTT. ATP was diluted into 4× reaction buffer, and gamma-^33P-ATP was added at 60 uCi/mL.
The assay was performed by adding 10 ul of the enzyme to 20 ul of the compound solution. The reaction was initiated by the addition of 10 ul of ATP mix. Final assay conditions included 10 uM ATP, 170 nM TGFβ R1, and […] in 20 mM MOPS, pH7. The reactions were incubated at room temperature for 20 minutes. The reactions were stopped by transferring 23 ul of reaction mixture onto a phosphocellulose 96-well filter plate, which had been pre-wetted with 15 ul of 0.25M H3PO4 per well. After 5 minutes, the wells were washed 4× with 75 mM H3PO4 and once with 95% ethanol. The plate was dried, scintillation cocktail was added to each well, and the wells were counted in a Packard TopCount microplate scintillation counter.

## CNC(=NC#N)NCCNC(=O)c1cnccc1Nc1nc(-c2cc(Cl)ccc2F)ncc1OC
  IC50: 140 nM
